Data published in patent EP4810483A1, “6- AND 5-HETEROARYL DERIVATIVES AND USE THEREOF” (CMS Research & Development Pte. Ltd., priority 2023, dated 2025).

Chains of the proteins cited; added tags and fusions are not shown. Lines headed by an entry give the natural chain unless they say otherwise; changes in a name come on top.
UniProt P05177, whole entry: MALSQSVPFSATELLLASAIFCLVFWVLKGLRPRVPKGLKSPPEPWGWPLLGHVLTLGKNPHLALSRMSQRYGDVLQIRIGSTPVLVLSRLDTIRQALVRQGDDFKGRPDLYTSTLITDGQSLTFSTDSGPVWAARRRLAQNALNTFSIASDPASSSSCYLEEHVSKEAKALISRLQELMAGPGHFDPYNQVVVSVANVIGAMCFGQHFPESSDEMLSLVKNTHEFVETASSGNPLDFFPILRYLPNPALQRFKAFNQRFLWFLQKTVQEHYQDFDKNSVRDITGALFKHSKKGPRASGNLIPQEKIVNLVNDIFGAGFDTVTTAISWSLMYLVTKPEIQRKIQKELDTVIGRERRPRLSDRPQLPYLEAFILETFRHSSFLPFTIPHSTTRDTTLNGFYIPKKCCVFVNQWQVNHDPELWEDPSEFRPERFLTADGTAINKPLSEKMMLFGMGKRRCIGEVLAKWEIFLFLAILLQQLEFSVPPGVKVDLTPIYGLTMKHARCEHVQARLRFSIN
UniProt P33261, whole entry: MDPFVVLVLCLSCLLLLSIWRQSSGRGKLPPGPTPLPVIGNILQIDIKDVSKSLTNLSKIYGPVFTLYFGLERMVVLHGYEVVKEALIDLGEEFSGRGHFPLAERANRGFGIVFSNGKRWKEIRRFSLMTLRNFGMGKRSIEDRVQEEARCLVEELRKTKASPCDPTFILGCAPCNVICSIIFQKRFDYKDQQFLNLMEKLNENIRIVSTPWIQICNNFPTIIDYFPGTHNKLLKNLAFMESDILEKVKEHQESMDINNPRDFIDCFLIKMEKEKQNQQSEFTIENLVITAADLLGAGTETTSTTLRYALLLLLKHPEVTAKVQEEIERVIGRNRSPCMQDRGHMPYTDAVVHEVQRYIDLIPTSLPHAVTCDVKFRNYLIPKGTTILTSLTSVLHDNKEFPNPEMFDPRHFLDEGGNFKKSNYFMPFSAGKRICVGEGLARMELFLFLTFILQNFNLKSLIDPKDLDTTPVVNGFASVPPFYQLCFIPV
UniProt P11712, whole entry: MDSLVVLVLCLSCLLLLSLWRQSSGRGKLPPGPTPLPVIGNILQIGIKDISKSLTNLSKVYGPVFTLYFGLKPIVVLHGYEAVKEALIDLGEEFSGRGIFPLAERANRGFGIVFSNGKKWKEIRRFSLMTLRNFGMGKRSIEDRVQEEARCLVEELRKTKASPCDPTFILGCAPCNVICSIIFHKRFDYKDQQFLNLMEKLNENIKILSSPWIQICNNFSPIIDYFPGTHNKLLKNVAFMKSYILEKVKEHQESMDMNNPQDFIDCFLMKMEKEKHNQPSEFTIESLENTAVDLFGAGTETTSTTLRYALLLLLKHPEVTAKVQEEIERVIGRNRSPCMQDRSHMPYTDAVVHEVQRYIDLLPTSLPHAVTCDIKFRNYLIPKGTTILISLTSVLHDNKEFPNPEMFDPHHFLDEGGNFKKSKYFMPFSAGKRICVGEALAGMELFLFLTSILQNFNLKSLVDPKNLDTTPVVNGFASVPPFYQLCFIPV
UniProt P10635, whole entry: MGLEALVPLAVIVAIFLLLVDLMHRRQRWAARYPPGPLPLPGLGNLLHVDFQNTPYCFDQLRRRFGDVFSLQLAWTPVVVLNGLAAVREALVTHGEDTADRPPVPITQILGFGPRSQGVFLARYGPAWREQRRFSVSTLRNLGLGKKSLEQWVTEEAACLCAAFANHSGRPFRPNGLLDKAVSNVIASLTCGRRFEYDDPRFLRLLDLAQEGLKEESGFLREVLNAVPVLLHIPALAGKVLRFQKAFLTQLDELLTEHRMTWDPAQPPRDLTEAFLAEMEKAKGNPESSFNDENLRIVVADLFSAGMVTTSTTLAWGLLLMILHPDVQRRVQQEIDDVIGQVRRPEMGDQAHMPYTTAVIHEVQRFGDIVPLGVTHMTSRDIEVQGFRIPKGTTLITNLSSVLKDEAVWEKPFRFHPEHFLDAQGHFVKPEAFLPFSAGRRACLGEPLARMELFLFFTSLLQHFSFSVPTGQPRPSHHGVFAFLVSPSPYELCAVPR
UniProt O43525: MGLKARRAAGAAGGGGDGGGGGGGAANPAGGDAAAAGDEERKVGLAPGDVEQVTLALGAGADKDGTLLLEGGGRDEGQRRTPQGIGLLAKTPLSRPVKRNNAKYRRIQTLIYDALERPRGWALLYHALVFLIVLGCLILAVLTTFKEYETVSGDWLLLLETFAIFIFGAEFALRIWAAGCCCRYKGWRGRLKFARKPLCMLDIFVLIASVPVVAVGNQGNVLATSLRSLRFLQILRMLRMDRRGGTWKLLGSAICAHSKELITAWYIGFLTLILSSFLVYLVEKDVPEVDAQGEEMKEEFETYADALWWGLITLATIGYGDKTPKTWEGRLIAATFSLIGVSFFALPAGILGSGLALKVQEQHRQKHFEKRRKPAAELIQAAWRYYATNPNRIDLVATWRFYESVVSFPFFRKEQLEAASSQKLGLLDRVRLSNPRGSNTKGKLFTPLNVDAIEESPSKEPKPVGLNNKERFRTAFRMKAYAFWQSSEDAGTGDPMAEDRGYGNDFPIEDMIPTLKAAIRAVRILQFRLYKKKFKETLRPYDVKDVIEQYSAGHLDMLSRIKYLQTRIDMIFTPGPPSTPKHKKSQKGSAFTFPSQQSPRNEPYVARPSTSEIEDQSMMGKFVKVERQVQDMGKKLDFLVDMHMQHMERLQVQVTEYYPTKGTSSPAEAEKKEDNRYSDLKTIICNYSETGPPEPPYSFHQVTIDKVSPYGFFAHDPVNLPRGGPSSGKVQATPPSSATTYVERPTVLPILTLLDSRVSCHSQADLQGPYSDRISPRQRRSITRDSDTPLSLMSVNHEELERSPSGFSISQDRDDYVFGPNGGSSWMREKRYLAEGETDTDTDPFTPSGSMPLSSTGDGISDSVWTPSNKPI
UniProt O43526, whole entry: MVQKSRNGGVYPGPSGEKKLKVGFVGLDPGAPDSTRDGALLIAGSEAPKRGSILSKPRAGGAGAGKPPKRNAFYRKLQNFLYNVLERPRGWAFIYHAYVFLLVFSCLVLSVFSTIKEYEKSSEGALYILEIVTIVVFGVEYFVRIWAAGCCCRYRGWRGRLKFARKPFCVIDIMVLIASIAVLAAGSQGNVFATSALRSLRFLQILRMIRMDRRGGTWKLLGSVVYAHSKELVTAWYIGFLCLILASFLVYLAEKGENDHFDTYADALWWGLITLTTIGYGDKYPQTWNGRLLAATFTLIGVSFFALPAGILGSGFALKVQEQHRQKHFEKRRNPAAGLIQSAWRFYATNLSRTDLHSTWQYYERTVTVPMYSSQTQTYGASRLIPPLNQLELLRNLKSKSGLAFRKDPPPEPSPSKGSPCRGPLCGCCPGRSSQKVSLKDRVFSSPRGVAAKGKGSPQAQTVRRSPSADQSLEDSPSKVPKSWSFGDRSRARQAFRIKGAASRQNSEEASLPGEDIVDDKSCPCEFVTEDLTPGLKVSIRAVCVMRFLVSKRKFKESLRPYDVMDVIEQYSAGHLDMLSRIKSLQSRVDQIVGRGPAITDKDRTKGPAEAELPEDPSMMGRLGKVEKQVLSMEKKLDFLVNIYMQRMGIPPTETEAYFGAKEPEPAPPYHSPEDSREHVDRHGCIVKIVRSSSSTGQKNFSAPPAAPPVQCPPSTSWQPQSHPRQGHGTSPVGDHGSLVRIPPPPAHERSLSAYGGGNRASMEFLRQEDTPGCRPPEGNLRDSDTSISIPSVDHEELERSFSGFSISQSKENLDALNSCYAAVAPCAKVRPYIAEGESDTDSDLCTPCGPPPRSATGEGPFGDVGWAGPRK

Columns and labels:
[1] = Pharmacokinetic evaluation in mice (IV and PO); format: in vivo; details: mouse, plasma, CD-1 mice, dose IV:0.5, PO:2 mg/kg
Experimental: Test Method 2: Pharmacokinetic Evaluation in Mice
Assay method: Test compounds were mixed with 5% DMSO / 60% polyethylene glycol (PEG400) / 35% water, vortexed and sonicated to obtain a clear 0.2 mg/mL solution, which was then filtered through a microporous membrane before use. Male CD-1 mice weighing 25-35 g were selected. The candidate compound solution was administered intravenously at a dose of 1 mg/kg. The candidate compound solution was orally administered at a dose of 5 mg/kg after fasting. Blood samples (25 µL each) were collected at 0.083, 0.25, 0.5, 1, 2, 4, 8, 12 and 24 hours after administration, and placed into commercial anticoagulant tubes pre-containing EDTA-K2. The tubes were centrifuged for 10 minutes to separate plasma, which was then stored at -60°C. The content of the target compound in plasma samples was determined by LC/MS/MS method, and pharmacokinetic parameters were calculated using Phoenix WinNonlin software (Pharsight, USA). […]

CYP1A2 = CYP1A2 (Homo sapiens, UniProt P05177); assay: Drug-drug interaction evaluation: CYP inhibition in human liver microsomes (cocktail method)
Experimental: (§1) The cocktail method using specific probe substrates for CYP1A2, CYP2C9, CYP2C19, CYP2D6 and CYP3A was used to evaluate the inhibitory effect of the compounds on the activity of human liver microsomal cytochrome P450 isoenzymes (CYP1A2, CYP2C9, CYP2C19, CYP2D6 and CYP3A).
(§2) Human liver microsomes, probe substrates, positive control inhibitors, and reduced nicotinamide adenine dinucleotide phosphate (NADPH).
(§3) To the corresponding wells of a reaction plate, 20 µL of substrate solution was added; to blank wells, 20 µL of potassium phosphate buffer was added.
(§4) To the corresponding wells, 2 µL of test compound and positive control working solution were added; to inhibitor-free and blank wells, 2 µL of solvent was added.
(§5) Human liver microsome working solution was prepared, and 158 µL of human liver microsome working solution was added to each well of the reaction plate.
(§6) The plate was pre-incubated at 37.0°C for 10 minutes.
(§7) To start the reaction, 20 µL of NADPH cofactor working solution was added to the reaction plate.
(§8) After incubation in a 37.0°C water bath with mixing for 10 minutes, 400 µL of stop solution was added to terminate the reaction.
(§9) The sample plate was centrifuged at 4000 rpm for 20 minutes.
(§10) 200 µL of supernatant was taken and mixed with 100 µL of pure water as diluent, and the plate was shaken to mix well.
(§11) Analysis was performed by liquid chromatography-tandem mass spectrometry (LC-MS/MS).
(§12) Using the percentage of remaining activity as the ordinate and the test compound concentration as the abscissa, a non-linear regression analysis was performed with a three-parameter or four-parameter model using XL fit software to calculate the IC50 value.
(§13) y = (max)/(1 + (((x)/(IC50)))^−hillslope) [formula]
(§14) y = min + (max−min)/(1 + (((x)/(IC50)))^−hillslope) [formula]
(§15) max = maximum enzyme activity; min = minimum enzyme activity; x = concentration of test compound or positive control inhibitor; y = enzyme activity at the corresponding concentration; hillslope = slope; IC50 = half-maximal inhibitory concentration. The four-parameter equation was used when the minimum enzyme activity was within ±10%; otherwise the three-parameter equation was used.

CYP2C19 = CYP2C19 (Homo sapiens, UniProt P33261); assay: as above
Experimental: as §1, §2, §3, §4, §5, §6, §7, §8, §9, §10, §11, §12, §13, §14, §15

CYP2C9 = CYP2C9 (Homo sapiens, UniProt P11712); assay: as above
Experimental: as §1, §2, §3, §4, §5, §6, §7, §8, §9, §10, §11, §12, §13, §14, §15

CYP2D6 = CYP2D6 (Homo sapiens, UniProt P10635); assay: as above
Experimental: as §1, §2, §3, §4, §5, §6, §7, §8, §9, §10, §11, §12, §13, §14, §15

hKCNQ2/3 = molecular target: T1, hKCNQ2/3 (Homo sapiens, UniProt O43525+O43526); assay: cell-based
T1 construct: expressed in transfected cells; host or cells: CHO
From the text: Test Method 1: hKCNQ2/3 Thallium Flux Assay
Test Objective: To test the in vitro concentration-response relationship of compounds using FLIPR thallium flux assay in CHO cell lines stably expressing hKCNQ2/3.
According to the split ratio, the cells were transferred to another T-75 flask containing complete cell growth medium. Note: To maintain logarithmic growth, the cells should be kept in a subconfluent monolayer state. Based on the cell doubling time, the cells were passaged every 2-3 days.
• (1) Day 1 - Cell preparation: Cells were digested as described above, and cell density and viability were determined using a Cell Countess. […] 2) Each 1 mM solution of K2SO4 and Tl2SO4 contains 2 mM K^+ and Tl^+; the final concentration should be calculated based on the ion concentration. 3) TlCl readily precipitates and a chloride-free buffer is required. • (3) Day 2 -Assay testing: Once the cells reached the desired confluence, the cell assay plates were removed from the incubator. […] After setting up the tips, baseline readings were taken for 60 seconds, then 12.5 µL was added from the composite plate (3×) to the cell assay plate, and data were recorded for at least 5 minutes. • (4) Data processing: Maximum signals were generated by the FLIPR software. […]
• (1) Day 1 - Cell preparation: Cells were digested as described above, and cell density and viability were determined using a Cell Countess. […]

| Compound | AUC(0-t) ([1]; PO, read-out: Area under the concentration-time curve AUC0-last PO) | Cmax ([1]; read-out: Peak plasma concentration Cmax) | IC50 (CYP1A2) | IC50 (CYP2C19) | IC50 (CYP2C9) | IC50 (CYP2D6) | EC50 (hKCNQ2/3) |
| --- | --- | --- | --- | --- | --- | --- | --- |
| Cc1c(NC(=O)CC(C)(C)C)n(C)c2cc(Nc3ccc(C(F)(F)F)cc3)ccc12 [Compound 5] | 5.32 µM·h | 0.491 µM | > 50 µM | 18.8 µM | 10.4 µM | > 50 µM |  |
| Cc1cccc(Nc2ccc3c(C)c(NC(=O)CC4(C)CC4)n(C)c3c2)n1 [Compound 34] |  |  |  |  |  |  | 0.31 µM |
| Cc1cccc(Nc2ccc3c(C)c(NC(=O)CC(C)(C)C)n(C)c3c2)n1 [Compound 32] |  |  |  |  |  |  | 0.33 µM |
